Results taken from paper PMC3961306, “Comparison of the Cancer Gene Targeting and Biochemical Selectivities of All Targeted Kinase Inhibitors Approved for Clinical Use” (PLoS ONE, 2014).

Assays:
Assay in all cases: Kinase profiling in a biochemical assay panel (mobility shift assays and ELISA), %-inhibition at 1 μM; selectivity entropy
[1] = biological target: panel of more than 300 wild-type and mutant kinases (313 kinase panel) (Homo sapiens, UniProt P48730); details: kinase CK1δ; 1 μM compound
[2] = biological target: panel of more than 300 wild-type and mutant kinases (313 kinase panel) (Homo sapiens, UniProt Q96KB5); details: 1 µM
[3] = biological target: panel of more than 300 wild-type and mutant kinases (313 kinase panel) (Homo sapiens, UniProt Q08345); details: 1 µM
[4] = biological target: panel of more than 300 wild-type and mutant kinases (313 kinase panel) (Homo sapiens, UniProt Q13188); details: 1 µM
[5] = biological target: panel of more than 300 wild-type and mutant kinases (313 kinase panel) (Homo sapiens, UniProt P51617); details: 1 µM
[6] = biological target: panel of more than 300 wild-type and mutant kinases (313 kinase panel) (Homo sapiens, UniProt P45984); details: 1 µM
[7] = biological target: panel of more than 300 wild-type and mutant kinases (313 kinase panel) (Homo sapiens, UniProt P22455, V550L); details: 1 µM
[8] = biological target: panel of more than 300 wild-type and mutant kinases (313 kinase panel) (Homo sapiens, UniProt Q05513); details: 1 µM
[9] = biological target: panel of more than 300 wild-type and mutant kinases (313 kinase panel) (Homo sapiens, UniProt Q13627)
[10] = biological target: panel of more than 300 wild-type and mutant kinases (313 kinase panel) (Homo sapiens, UniProt P29320); details: 1 µM
[11] = biological target: panel of more than 300 wild-type and mutant kinases (313 kinase panel) (Homo sapiens, UniProt P12931); details: 1 µM

## CNC(=O)c1ccccc1Sc1ccc2c(/C=C/c3ccccn3)n[nH]c2c1 [axitinib]
[1]
  %-inhibition, CK1δ: -0.18%

## C[C@@H]1CCN(C(=O)CC#N)C[C@@H]1N(C)c1ncnc2[nH]ccc12 [tofacitinib]
[2]
  %-inhibition of PBK: -12%
[3]
  %-inhibition of DDR1: 7%
[4]
  %-inhibition of MST2: 3.29%
[5]
  %-inhibition of IRAK1: 7.45%
[6]
  %-inhibition of JNK2: -3.47%
[7]
  %-inhibition of FGFR4(V550L): 2%
[8]
  %-inhibition of PKCζ: 13%
[9]
  %-inhibition of DYRK1A: -12%
[10]
  %-inhibition of EPHA3: -16%
[11]
  %-inhibition of SRC: 7%
